Broadly, the Ki is the equilibrium dissociation constant of an inhibitor or competing ligand from its target.

Protein sequences, listed by entry. Tags and fused reporters are not part of them.
UniProt P41146, whole entry: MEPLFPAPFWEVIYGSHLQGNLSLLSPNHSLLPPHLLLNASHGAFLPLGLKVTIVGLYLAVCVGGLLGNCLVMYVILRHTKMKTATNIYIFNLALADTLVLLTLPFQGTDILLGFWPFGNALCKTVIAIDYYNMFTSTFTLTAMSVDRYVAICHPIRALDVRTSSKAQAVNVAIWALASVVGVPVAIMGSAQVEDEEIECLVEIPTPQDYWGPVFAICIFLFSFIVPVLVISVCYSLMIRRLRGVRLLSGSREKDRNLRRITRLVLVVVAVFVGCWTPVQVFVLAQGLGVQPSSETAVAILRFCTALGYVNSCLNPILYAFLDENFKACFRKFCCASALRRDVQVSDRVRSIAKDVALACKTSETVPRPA

The source of these data is ChEMBL document CHEMBL3886520, “Orvinol and thevinol derivatives useful in the treatment of depression” (2016).

The target of this experiment is Nociceptin receptor (Homo sapiens, UniProt P41146). Description: Ligand Binding Assays: As Alt et al., 2002. Membranes (20 ug) are incubated in 50 mM Tris-HCl, pH 7.4 with [3H]diprenorphine or [3H]nociceptin in the absence or presence of varying concentrations of test compounds for 60 min in a shaking water bath at 25° C. Nonspecific binding is measured using 10 uM naloxone (MOR, DOR, KOR) or N/OFQ (NOP). Samples are filtered through GF/C glass-fiber filtermats. As to conditions: brandel.

With `CO[C@]12CC[C@@]3(C[C@@H]1[C@](C)(O)c1cccs1)[C@H]1Cc4ccc(O)c5c4[C@@]3(CCN1CC1CC1)[C@H]2O5`, the Ki turned out to be 34.5 nM.
